Paper PMC6935813, “Assessment of the Aromatase Inhibitory Activity of Ma-Huang-Tang (MHT) and Its Active Compounds” (Evidence-based Complementary and Alternative Medicine : eCAM, 2019)

Protein sequences, listed by entry. Tags and fused reporters are not part of them. Lines headed by an entry give the natural chain unless they say otherwise; changes in a name come on top.
UniProt P11511: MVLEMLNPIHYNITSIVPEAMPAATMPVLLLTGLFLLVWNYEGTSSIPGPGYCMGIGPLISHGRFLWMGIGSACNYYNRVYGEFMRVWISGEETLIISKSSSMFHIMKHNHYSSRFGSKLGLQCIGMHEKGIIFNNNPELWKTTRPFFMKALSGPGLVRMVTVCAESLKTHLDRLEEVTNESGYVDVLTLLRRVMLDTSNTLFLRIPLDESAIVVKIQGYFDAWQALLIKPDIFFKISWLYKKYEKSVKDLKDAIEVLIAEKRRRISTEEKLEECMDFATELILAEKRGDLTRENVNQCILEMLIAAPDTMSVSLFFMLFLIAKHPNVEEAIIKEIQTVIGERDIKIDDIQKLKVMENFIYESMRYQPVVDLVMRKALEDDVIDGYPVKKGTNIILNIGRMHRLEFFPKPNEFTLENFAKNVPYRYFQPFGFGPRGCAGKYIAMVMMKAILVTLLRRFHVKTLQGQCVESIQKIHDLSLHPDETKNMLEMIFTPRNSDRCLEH

Tests used:
[1] = target: T1, aromatase (Homo sapiens, UniProt P11511); assay: Cell-based aromatase assay: estrone ELISA in KGN cells given androstenedione; conditions: estrone level by ELISA; maximum con. 5 mM; read-out: Aromatase inhibition IC50 in KGN cells
Protocol: The human granulosa-like tumor cell line KGN was obtained from RIKEN BioResource Center (Ibaraki, JPN). The cells were grown in Dulbecco's modified Eagle's medium/Ham's F-12 nutrient mix ([…], KOR) supplemented with 5% (v/v) fetal bovine serum (FBS) and 0.5% antibiotics (100 U/mL penicillin and 100 μg/mL streptomycin, Gibco BRL, NY, USA) in a humidified atmosphere of 5% CO2 at 37°C. Prior to treatment with MHT and its components in all the experiments, the cells were cultured for 24 h by switching to phenol-red free DMEM/H-12 medium ([…], KOR) with 5% (v/v) charcoal-stripped FBS (HyClone, Logan, UT, USA), and the samples were treated under the same conditions. Cells (4 × 10^4 cells/mL) were placed on a 96-well tissue culture plate and incubated in DMEM/F-12 medium with 5% charcoal-stripped FBS (HyClone, Logan, UT, USA) overnight. After the addition of MHT or its components, the cells were incubated for 24 h. […] Fractions of the supernatant were harvested and transferred to a new Eppendorf tube.

[2] = target: T1, aromatase; assay: Cell-free fluorescence-based aromatase inhibition assay (DBF hydrolysis); conditions: read-out: Aromatase inhibition IC50, DBF substrate, human CYP19 Supersomes

Compound | IC50 [1] | IC50 [2]
O=C1C[C@@H](c2ccc(O[C@@H]3O[C@H](CO)[C@@H](O)[C@H](O)[C@H]3O)cc2)Oc2cc(O)ccc21 [Liquiritin (5), liquiritin] | 499 µM | –
liquiritin apioside [Liquiritin apioside (6)] | 522 µM | 508 µM
